Data as given in PMC6364133, “Selectivity of Dietary Phenolics for Inhibition of Human Monoamine Oxidases A and B” (BioMed Research International, 2019).

Protein sequences, listed by entry. Tags and fused reporters are not part of them.
UniProt P27338, whole entry: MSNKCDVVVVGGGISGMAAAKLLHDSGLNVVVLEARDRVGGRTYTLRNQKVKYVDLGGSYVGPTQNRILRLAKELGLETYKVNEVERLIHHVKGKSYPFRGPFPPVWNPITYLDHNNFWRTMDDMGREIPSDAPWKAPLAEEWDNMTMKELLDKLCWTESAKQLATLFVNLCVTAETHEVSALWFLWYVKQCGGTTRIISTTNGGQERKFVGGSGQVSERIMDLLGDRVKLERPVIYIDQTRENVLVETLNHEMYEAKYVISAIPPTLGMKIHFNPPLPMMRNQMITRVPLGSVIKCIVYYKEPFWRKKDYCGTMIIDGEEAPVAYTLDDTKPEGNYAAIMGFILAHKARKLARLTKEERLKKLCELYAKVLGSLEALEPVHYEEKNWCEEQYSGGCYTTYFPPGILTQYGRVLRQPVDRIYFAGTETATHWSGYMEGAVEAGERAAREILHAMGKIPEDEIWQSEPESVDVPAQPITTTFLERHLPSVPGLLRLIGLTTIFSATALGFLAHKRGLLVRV

Target: MAO-B (Homo sapiens, UniProt P27338)
Experiment: Inhibition mechanism studies (competition, time dependence) with MAO-B
Type: biochemical
Set-up: purchased BD Biosciences (San Jose, CA) or Corning Discovery Labware (Woburn, MA)
Conditions: 0.5 μM, preincubation 0-60 min, then kynuramine 20 μM
Protocol: To determine time dependence, the protocol by Obach et al. was followed. […] Tranylcypromine was used as a positive control for time-dependent inhibition, and DMSO (0.9% v/v) was used as a negative control. After adding kynuramine, the enzymes were incubated for 30 minutes before processing as described above.
Time depended data were analyzed by fitting either straight line or one-phase exponential decay models to the data in GraphPad Prism v5.

How did the “plateau inhibition, MAO-B” value turn out when `N[C@@H]1C[C@H]1c1ccccc1` (racemic) [tranylcypromine, reference compound] was run?
Its value is 85%.
